Laboratory results: EP4840863A1, “FLUORINE-CONTAINING PARTHENOLIDE DERIVATIVE, PREPARATION METHOD THEREFOR AND USE THEREOF” (dated 2026)

Tests used:
[1] = Distribution of Compound 4 and released Compound 1 in tissues (brain, pancreas, rectum, liver, lung; LC/MS)
Experimental: (1) Forty-eight healthy Bar b/c mice, each weighing approximately 20 g, were taken and divided into 3 groups. Blank control group (6 mice), oral gavage administration group (Compound 4 dose: 50 mg/kg, 21 mice), and tail vein injection administration group (Compound 4 dose: 10 mg/kg, 21 mice) (2) For the oral gavage group, blood samples were collected at 5 min, 15 min, 30 min, 1 h, 3 h, 8 h, and 24 h after administration. For the intravenous injection group, blood samples were collected at 2 min, 5 min, 15 min, 30 min, 1 h, 3 h, 8 h, and 24 h after administration. Blood was collected from mice via eyeball removal and placed in anticoagulant tubes containing sodium heparin. The samples were immediately centrifuged at 5000 rpm at low temperature (4°C) for 10 min to obtain plasma samples. The samples were stored in a -80°C freezer for analysis. Three mice were used per time point. (3) The mouse was fixed on a foam board. The skin on the chest was lifted with forceps, and the thoracic skin and ribs were cut open with scissors to expose the heart and liver. The auricle was then cut open. A syringe needle was inserted into the left ventricle of the mouse, and normal saline was perfused for approximately 1 min (10-20 mL) until the mouse's limbs, liver, and tongue turned pale. Brain collection: The skin on the head was cut open to expose the white skull. The cartilage was cut, the skull cap was carefully pried open to expose the white brain, and the entire brain was dissected out. Tissues such as the pancreas, liver, lung, and rectum were also collected. The samples were stored in a -80°C freezer for analysis. (4) The contents of Compound 4 and Compound 1 in peripheral blood and tissues were detected by LC/MS. MS/MS information

H520 = assay: Anticancer activity test (CCK-8), H520 cells; settings: 72 h, Table 1-1
Experimental: Cells in logarithmic growth phase were digested, centrifuged, and counted; the cell suspension was adjusted to a concentration of 1500-3500 cells/well, and 95 µL was seeded into each well of a 96-well plate.
After continued overnight culture, drugs at different concentrations were added to the plate, with six replicate wells for each concentration. 10 µL of the drug was added to each well, followed by incubation for 72 h. Then, 10 µL of CCK-8 solution was added to each well (care should be taken to avoid generating bubbles in the wells, as they can affect the OD reading). After incubation in the incubator for 1-4 h, the OD value at 450 nm was measured using a microplate reader. The experiment to assess the effect of each drug on each cell line at different time points was repeated three times.
Data were processed using EXCEL software to calculate the inhibition rate at different concentrations, and SPSS was used to fit the IC50 value. EXCEL was used to calculate the mean and standard deviation of the three IC50 values. Inhibition rate % = {1 - (OD value of drug well - OD value of blank well) / (OD value of control well - OD value of blank well) } * 100%. Table 1-1 Activity of Compounds in Inhibiting Cancer Cells

[2] = iv (10 mg/kg) Compound 4, 1h, individual mice, 10 mg/kg
[3] = iv (10 mg/kg) Compound 4, 3h, Mean
[4] = po (50 mg/kg) Compound 4, 5min, Mean
[5] = po (50 mg/kg) Compound 4, 5min, individual mice, 50 mg/kg
[6] = po (50 mg/kg) Compound 4, 15min, Mean
[7] = po (50 mg/kg) Compound 4, 15min, individual mice, 50 mg/kg
[8] = po (50 mg/kg) Compound 4, 30min, Mean
[9] = po (50 mg/kg) Compound 4, 30min, individual mice, 50 mg/kg
[10] = po (50 mg/kg) Compound 4, 1h, Mean
[11] = po (50 mg/kg) Compound 4, 1h, individual mice, 50 mg/kg
[12] = po (50 mg/kg) Compound 4, 3h, Mean
[13] = po (50 mg/kg) Compound 4, 8h, Mean

- Concentrations of Compound 4 in the Rectum ([1]; iv (10 mg/kg) Compound 4, 1h, Mean): 451 ng/g
- Concentrations of Compound 4 in Brain Tissue [1, 2]: 249 ng/g and 278 ng/g and 232 ng/g
- Concentrations of Compound 4 in Liver [1, 2]: 221 ng/g and 245 ng/g and 387 ng/g
- Concentrations of Compound 4 in Pancreatic Tissue [1, 2]: 439 ng/g and 359 ng/g and 669 ng/g
- Concentrations of Compound 4 in the Rectum [1, 2]: 455 ng/g and 369 ng/g and 529 ng/g
- Concentrations in Lung [1, 3]: 15.8 ng/g
- Concentrations of Compound 4 in Brain Tissue [1, 3]: 5.01 ng/g
- Concentrations of Compound 4 in Liver [1, 3]: 34.8 ng/g
- Concentrations of Compound 4 in Pancreatic Tissue [1, 3]: 38.2 ng/g
- Concentrations of Compound 4 in the Rectum [1, 3]: 53.9 ng/g
- Concentrations of Compound 4 in Liver ([1]; iv (10 mg/kg) Compound 4, 8h, individual mice): 0.91* ng/g
- Concentrations in Lung [1, 4]: 3843 ng/g
- Concentrations of Compound 4 in Brain Tissue [1, 4]: 1730 ng/g
- Concentrations of Compound 4 in Liver [1, 4]: 22633 ng/g
- Concentrations of Compound 4 in Pancreatic Tissue [1, 4]: 7897 ng/g
- Concentrations of Compound 4 in the Rectum [1, 4]: 3463 ng/g
- Concentrations in Lung [1, 5]: 3110 ng/g and 4400 ng/g and 4020 ng/g
- Concentrations of Compound 4 in Brain Tissue [1, 5]: 1230 ng/g and 2260 ng/g and 1700 ng/g
- Concentrations of Compound 4 in Liver [1, 5]: 26900 ng/g and 16300 ng/g and 24700 ng/g
- Concentrations of Compound 4 in Pancreatic Tissue [1, 5]: 8960 ng/g and 5740 ng/g and 8990 ng/g
- Concentrations of Compound 4 in the Rectum [1, 5]: 2130 ng/g and 5040 ng/g and 3220 ng/g
- Concentrations in Lung [1, 6]: 3193 ng/g
- Concentrations of Compound 4 in Brain Tissue [1, 6]: 2047 ng/g
- Concentrations of Compound 4 in Liver [1, 6]: 8383 ng/g
- Concentrations of Compound 4 in Pancreatic Tissue [1, 6]: 5220 ng/g
- Concentrations of Compound 4 in the Rectum [1, 6]: 3510 ng/g
- Concentrations in Lung [1, 7]: 2720 ng/g and 3050 ng/g and 3810 ng/g
- Concentrations of Compound 4 in Brain Tissue [1, 7]: 2450 ng/g and 2220 ng/g and 1470 ng/g
- Concentrations of Compound 4 in Liver [1, 7]: 9670 ng/g and 8820 ng/g and 6660 ng/g
- Concentrations of Compound 4 in Pancreatic Tissue [1, 7]: 4910 ng/g and 5730 ng/g and 5020 ng/g
- Concentrations of Compound 4 in the Rectum [1, 7]: 5970 ng/g and 2390 ng/g and 2170 ng/g
- Concentrations in Lung [1, 8]: 1416 ng/g
- Concentrations of Compound 4 in Brain Tissue [1, 8]: 1088 ng/g
- Concentrations of Compound 4 in Liver [1, 8]: 4913 ng/g
- Concentrations of Compound 4 in Pancreatic Tissue [1, 8]: 4750 ng/g
- Concentrations of Compound 4 in the Rectum [1, 8]: 4830 ng/g
- Concentrations of Compound 4 in Brain Tissue [1, 9]: 1040 ng/g and 763 ng/g and 1460 ng/g
- Concentrations of Compound 4 in Liver [1, 9]: 2750 ng/g and 5260 ng/g and 6730 ng/g
- Concentrations of Compound 4 in the Rectum [1, 9]: 5940 ng/g and 2960 ng/g and 5590 ng/g
- Concentrations in Lung [1, 10]: 724 ng/g
- Concentrations of Compound 4 in Brain Tissue [1, 10]: 217 ng/g
- Concentrations of Compound 4 in Liver [1, 10]: 762 ng/g
- Concentrations of Compound 4 in Pancreatic Tissue [1, 10]: 793 ng/g
- Concentrations of Compound 4 in the Rectum [1, 10]: 767 ng/g
- Concentrations in Lung [1, 11]: 1150 ng/g and 557 ng/g and 466 ng/g
- Concentrations of Compound 4 in Liver [1, 11]: 1220 ng/g and 412 ng/g and 655 ng/g
- Concentrations of Compound 4 in Pancreatic Tissue [1, 11]: 1290 ng/g and 486 ng/g and 602 ng/g
- Concentrations of Compound 4 in the Rectum [1, 11]: 1250 ng/g and 630 ng/g and 422 ng/g
- Concentrations in Lung [1, 12]: 172 ng/g
- Concentrations of Compound 4 in Brain Tissue [1, 12]: 42.4 ng/g
- Concentrations of Compound 4 in Liver [1, 12]: 262 ng/g
- Concentrations of Compound 4 in Pancreatic Tissue [1, 12]: 305 ng/g
- Concentrations of Compound 4 in the Rectum [1, 12]: 938 ng/g
- Concentrations of Compound 4 in Brain Tissue [1, 13]: 2.5 ng/g
- Concentrations of Compound 4 in Liver [1, 13]: 3.7 ng/g
- Concentrations of Compound 4 in Pancreatic Tissue [1, 13]: 4.13 ng/g
- Concentrations of Compound 4 in the Rectum [1, 13]: 25.6 ng/g
- Concentrations of Compound 4 in Liver ([1]; po (50 mg/kg) Compound 4, 24h, Mean): 13 ng/g
- Concentrations of Compound 4 in Liver ([1]; po (50 mg/kg) Compound 4, 24h, individual mice): 13 ng/g
- IC50 (H520): 3.84 µM
SMILES: CN(C)CC1C(=O)OC2C1CCC(CC(F)(F)F)=CCCC1(C)OC21 (stereo not drawn) [Compound 4]

“And” between values parts separate entries of the source, which are not always exact repeats. Identical values can stand only once. Marks after values point to notes of the source that are not given here.
